Values quoted from earlier work as cited in patent publication US5583117A, “Acylated uridine and cytidine for elevating tissue uridine and cytidine” (priority 1993, dated 1996).

Tested on: brain
Conditions: intraventricular administration; cited from earlier work

Nc1ccn([C@@H]2O[C@H](CO)[C@@H](O)[C@H]2O)c(=O)n1 [cytidine]
concentrations of nucleotides, CDP-choline, CDP-ethanolamine and CMP: measurable increase
